Laboratory results published in patent US7049295B2, “Compounds and use thereof to modify transport across cell membranes” (Biotransys Limited, priority 1999, dated 2006).

Tested on: receptor isolated from the HUVECS plasma membrane (albumin receptor protein)
Assay: Interaction with purified isolated receptor reconstituted into FPE-labelled artificial membranes
Format: binding
Conditions: 5 μM human serum albumin
From the text: The following Examples illustrate the behaviour of various peptides and other molecules that promote transcellular transport of therapeutic molecules etc. These studies make use of techniques that show the interactions of molecules with receptors and cell membranes. […] The underlying theory and application of this technique is outlined in: • Wall, J., Ayoub, F. & O'Shea. P. (1995) J. Cell Sci. 108, 2673–2682 • Cladera, J. and O'Shea, P. (1998) Biophys. J. 74, 2434–2442 • Cladera, J., Martin, I., Ruysschaert, J. M. and O'Shea, P. (1999) J. Biol. Chem. 274, 29951–29959 the teaching of all of which is incorporated herein by reference.
FIG. 2 illustrates the interactions of BVS1 with a receptor isolated from the HUVECS plasma membrane and reconstituted into artificial membranes labelled with FPE. At the arrows, 5 μM BVS1 was added. Two separate experiments are shown and offset in the time dimension for clarity. In the second trace, however, addition of BVS1 was preceded by the addition of 5 μM of human serum albumin. […]

human serum albumin
binding of human serum albumin to the reconstituted isolated receptor: appears to bind
